For two molecules, activation results are on record in PubChem BioAssay AID930 (National Center for Advancing Translational Sciences (NCATS), 2007).

Molecules are shown by their SMILES. The entries are a selection whose mix differs from that of the whole data set. Activity calls are given as the source filed them. The call rests on the fitted dose curve; in most records, active means well fitted activation curve with a large enough effect; inconclusive means small, poorly fitted or top-dose-only effect; inactive means flat fitted curve, though single readings scatter.

The nature of the assay: Confirmation and Secondary Assay for Modulators of Hemoglobin Beta Chain Splicing at IVS2 705 locus. Further: % of control where 0% means no effect. The note with it: HeLa EGFP-705 splicing reporter, GFP fluorescence, 48 h; at 46.1 µM (top of the series) unless noted. An excerpt:
NIH Chemical Genomics Center [NCGC] NIH Molecular Libraries Screening Centers Network [MLSCN] MLSCN Grant: 1 X01 MH080684-01 PI Name: Dr. Ryszard Kole NCGC Assay Overview: Modulation of Alternative Splicing as Therapy Abnormal splicing is associated with a number of diseases, including cancer and genetic diseases such as cystic fibrosis, muscular dystrophy and beta-thalassemia. Alteration of disease associated splicing patterns provides a promising target for treatment. […] Mutations in the second intron of the b-globin gene at positions 654 or 705 are clinically relevant and cause mis-splicing which results in an out of frame gene product. […] EGFP-705 HeLa Cells as screen system. HeLa cell lines were stably transfected with a construct in which the EGFP (enhanced green fluorescent protein) cDNA was interrupted by the second intron of the beta-globin gene (IVS2-705). The ISV2 intron contains mutations which cause mis-splicing of EGFP and premature termination of EGFP which results in a nonfluorescent protein product. […]
NCGC Assay Protocol Summary: Confirmatory Screening. […] Plates were read in the Acumen Explorer (TTP Labtech) using 488 nm laser excitation and 500-520 nm emission PMT filter in a 1 x 8 uM capture mode. Fluorescnet objects ranging in size from 5 to 250 uM were measured and the total peak GFP intensity for each well was used for data analysis. […]
For `CCN(CCCl)Cc1ccccc1C`, the activation is inactive: 1.24% [at 38.3 µM]. The same measure for `OCCSCCO`: inactive: 0.74%.
